Laboratory results reported in ChEMBL document CHEMBL4038325, “Opioid Receptor Modulators with a Cinnamyl Group” (J Med Chem, 2017).
The source made the active and inactive calls. No cut-off for these calls is given here.

By UniProt entry, the sequences of proteins in these tests, tags left out. Where a name states a change or a piece, a line headed by the entry shows the natural chain unless it says otherwise.
UniProt P41145: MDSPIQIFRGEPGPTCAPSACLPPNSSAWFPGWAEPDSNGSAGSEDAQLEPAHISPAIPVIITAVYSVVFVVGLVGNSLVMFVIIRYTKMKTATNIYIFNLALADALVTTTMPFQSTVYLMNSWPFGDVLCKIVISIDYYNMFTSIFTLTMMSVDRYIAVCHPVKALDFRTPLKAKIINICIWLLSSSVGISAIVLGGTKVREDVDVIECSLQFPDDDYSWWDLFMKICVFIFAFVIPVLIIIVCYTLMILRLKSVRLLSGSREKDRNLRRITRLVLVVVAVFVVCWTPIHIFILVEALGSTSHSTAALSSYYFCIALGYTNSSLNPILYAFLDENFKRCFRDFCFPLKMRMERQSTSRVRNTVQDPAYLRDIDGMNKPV
UniProt P41143, whole entry, looked up: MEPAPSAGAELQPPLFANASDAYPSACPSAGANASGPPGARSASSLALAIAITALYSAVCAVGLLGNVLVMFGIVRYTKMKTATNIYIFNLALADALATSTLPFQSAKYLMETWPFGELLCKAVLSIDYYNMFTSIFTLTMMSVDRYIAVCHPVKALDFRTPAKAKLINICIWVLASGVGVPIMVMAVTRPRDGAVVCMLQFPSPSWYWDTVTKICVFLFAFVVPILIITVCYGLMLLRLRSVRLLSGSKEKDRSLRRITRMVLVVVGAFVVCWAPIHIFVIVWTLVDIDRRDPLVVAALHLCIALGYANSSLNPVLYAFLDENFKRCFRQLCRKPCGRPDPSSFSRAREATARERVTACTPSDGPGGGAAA
UniProt P35372, whole entry, looked up: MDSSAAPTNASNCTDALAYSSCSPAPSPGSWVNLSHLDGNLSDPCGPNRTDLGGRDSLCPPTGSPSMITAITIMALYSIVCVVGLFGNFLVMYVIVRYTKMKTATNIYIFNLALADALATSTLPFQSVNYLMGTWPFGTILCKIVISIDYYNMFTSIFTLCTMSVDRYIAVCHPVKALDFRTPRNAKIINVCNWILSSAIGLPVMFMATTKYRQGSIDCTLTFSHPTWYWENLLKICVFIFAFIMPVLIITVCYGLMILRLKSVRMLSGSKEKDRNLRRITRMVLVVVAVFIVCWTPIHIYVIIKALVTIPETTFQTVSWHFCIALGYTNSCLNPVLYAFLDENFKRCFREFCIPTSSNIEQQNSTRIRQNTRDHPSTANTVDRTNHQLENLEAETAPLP
UniProt P35367, whole entry, looked up: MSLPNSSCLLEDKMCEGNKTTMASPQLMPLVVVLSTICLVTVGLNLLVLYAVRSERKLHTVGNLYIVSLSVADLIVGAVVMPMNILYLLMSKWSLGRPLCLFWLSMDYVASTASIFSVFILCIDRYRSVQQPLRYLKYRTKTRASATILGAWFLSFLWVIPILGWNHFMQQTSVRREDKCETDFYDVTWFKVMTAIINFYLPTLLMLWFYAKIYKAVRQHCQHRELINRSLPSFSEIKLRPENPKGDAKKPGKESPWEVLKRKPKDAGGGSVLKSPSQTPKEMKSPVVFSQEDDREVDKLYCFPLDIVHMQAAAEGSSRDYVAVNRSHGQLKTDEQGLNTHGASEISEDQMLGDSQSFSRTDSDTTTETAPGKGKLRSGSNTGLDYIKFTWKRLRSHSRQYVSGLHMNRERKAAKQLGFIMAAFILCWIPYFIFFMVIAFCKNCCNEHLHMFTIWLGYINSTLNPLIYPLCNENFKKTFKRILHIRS

Key:
[1] = biological target: T1, Kappa-type opioid receptor (Homo sapiens, UniProt P41145); conditions: HEK-293T, at 10 µM
[2] = biological target: Delta-type opioid receptor (Homo sapiens) (UniProt P41143); experiment: Antagonist activity at recombinant human DOR expressed in HEK293T cells assessed as reduction in DADLE-induced inhibition of forskolin-stimulated cAMP level at 10 uM preincubated for 15 to 20 mins followed by DADLE and forskolin addition by GloSensor assay relative to control; format: functional, cell-based; conditions: HEK-293T
In short: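 HEK293T transiently expressing DOR plus GloSensor-22F were given compound in triplicate for 15-20 min at 37°C. DADLE (1 µM) was then added, followed by forskolin (10 µM); luminescence read. Signal normalized to % control (agonist + forskolin).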

Mu-type opioid receptor [3] = biological target: T2, Mu-type opioid receptor (Homo sapiens, UniProt P35372); conditions: HEK-293T, at 10 µM
[4] = biological target: Delta-type opioid receptor (Homo sapiens) (UniProt P41143); experiment: Agonist activity at recombinant human DOR expressed in HEK293T cells assessed as inhibition of forskolin-stimulated cAMP level at 10 uM preincubated for 15 to 20 mins followed by forskolin addition by GloSensor assay relative to control; format: functional, cell-based; conditions: HEK-293T
In short: (§1)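 HEK293T transiently co-transfected (calcium phosphate) with DOR or MOR plus pGloSensor-22F. Cells were loaded with luciferin in HBSS/20 mM HEPES pH 7.4 for 90 min, then given compound in triplicate for 15-20 min at 37°C. Forskolin added (final 10 µM); luminescence read. cAMP signal normalized to forskolin-alone control.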

[5] = biological target: T1, Kappa-type opioid receptor; conditions: HEK-293T, at 10 µM; remark: listed apart in the source
Mus musculus [6] = experiment: Analgesic activity in C57BL/6J mouse assessed as tail withdrawal latency at 5 mg/kg by tail flick test
[7] = biological target: Histamine H1 receptor (Homo sapiens) (UniProt P35367); experiment: Antagonist activity at histamine H1 receptor (unknown origin) at 10 uM
In short: (§2)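 Primary screen, agonist and antagonist modes, each receptor tested separately. Compounds at 10 µM in triplicate; response taken as % inhibition or stimulation relative to control. Compounds giving at least 50% effect were then run over 10 µM to 10 pM to obtain EC50/IC50.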

Mu-type opioid receptor [8] = biological target: T2, Mu-type opioid receptor; experiment: Agonist activity at recombinant human MOR expressed in HEK293T cells assessed as inhibition of forskolin-stimulated cAMP level at 10 uM preincubated for 15 to 20 mins followed by forskolin addition by GloSensor assay relative to control; format: functional, cell-based; conditions: HEK-293T
In short: as §1

[9] = biological target: Histamine H1 receptor (Homo sapiens) (UniProt P35367); experiment: Agonist activity at histamine H1 receptor (unknown origin) at 10 uM
In short: as §2

Mus musculus [10] = experiment: Analgesic activity in C57BL/6J mouse assessed as tail withdrawal latency at 5 mg/kg measured after 30 mins in presence of KOR antagonist norBNI by tail flick test

Structure (SMILES) | inhibition [1] | inhibition [2] | inhibition (Mu-type opioid receptor [3]) | inhibition [4] | inhibition [5] | Activity (Mus musculus [6]) | inhibition [7] | inhibition (Mu-type opioid receptor [8]) | Activity [9] | Activity (Mus musculus [10])
CC1CN(C/C(=C\c2ccccc2)C(=O)NCC(=O)O)CCC1(C)c1cccc(O)c1 (stereo not drawn) | inactive | inactive | 50% | inactive | inactive | – | – | – | – | –
CN(C(=O)Cc1ccc(Cl)c(Cl)c1)C1CCCCC1N1CCCC1 (stereo not drawn) | – | inactive | inactive | inactive | – | Tde | inactive | inactive | inactive | inactive
